Earlier results in patent US11324732B2, “Methods for the treatment of dyskinesia in cerebral palsy” (AUSPEX PHARMACEUTICALS, INC., priority 2018, dated 2022).

Amino acid sequences for entries named in this document (tags omitted).
UniProt Q05940, whole entry, species assumed: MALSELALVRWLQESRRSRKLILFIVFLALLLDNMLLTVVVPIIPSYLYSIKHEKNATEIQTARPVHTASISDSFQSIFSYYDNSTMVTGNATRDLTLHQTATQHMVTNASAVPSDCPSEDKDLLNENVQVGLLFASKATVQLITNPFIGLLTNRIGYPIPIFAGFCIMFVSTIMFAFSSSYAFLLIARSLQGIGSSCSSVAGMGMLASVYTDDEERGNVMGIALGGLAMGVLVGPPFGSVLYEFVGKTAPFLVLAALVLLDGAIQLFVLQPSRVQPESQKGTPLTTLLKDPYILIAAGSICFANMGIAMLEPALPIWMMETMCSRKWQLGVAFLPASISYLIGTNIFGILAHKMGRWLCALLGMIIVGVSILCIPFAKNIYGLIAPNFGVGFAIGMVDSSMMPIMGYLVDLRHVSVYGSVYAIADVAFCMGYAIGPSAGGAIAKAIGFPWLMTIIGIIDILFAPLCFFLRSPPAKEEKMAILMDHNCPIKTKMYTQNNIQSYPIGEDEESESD

Molecular target: VMAT2 (Homo sapiens, UniProt Q05940)
Settings: active metabolites formed from deutetrabenazine; read-out: inhibition constant, VMAT2 binding; cited from earlier work

Row | Substance | Ki [nM]
1 | alpha-dihydrotetrabenazine [α-HTBZ] | 3.8
2 | beta-dihydrotetrabenazine [β-HTBZ] | 22
